Values quoted from earlier work in patent publication US5486541A (Teva Pharmaceutical Industries, Ltd., priority 1991, dated 1996).

System: MAO-B
Details: cited from earlier work

## C#CCN(C)[C@H](C)Cc1ccccc1 [(-)-deprenyl]
  MAO-B inhibition by (-)-deprenyl (in words): selectively and irreversibly inhibited
